Reference: ChEMBL document CHEMBL5584356, “Discovery of 6,7-Dihydropyrazolo[1,5-a]pyrazin-4(5H)-one Derivatives as mGluR2 Negative Allosteric Modulators with In Vivo Activity in a Rodent's Model of Cognition” (J Med Chem, 2024)

Species on record: Rattus norvegicus
Experiment: Pro-cognitive activity in male Long-Evans rat assessed as reversal of phencyclidine induced disruption of preference for exploration of new arm pretreated for 4 hrs followed by treated with PCP measured after 30 mins by V-maze (visual-spatial working memory task) cognition test
Format: functional, organism-based
Conditions: dose 0.16-0.63 mg/kg, route po, time 4.5 hrs

Compound: Cc1cc(-c2cnn3c2C(=O)N(c2ccc(C(F)(F)F)cc2)C[C@@H]3C)ccn1
- Activity: Dose-Dependent Effect
